# Assay results reported in patent publication US5714467A, “Antibacterial and antimalarial hybrid peptides” (The Rockefeller University, priority 1993, dated 1998).
# Test system: Sheep Red Cells
# Assay: lysis of sheep red blood cells (lysis assay or SRC plate assay)
# Format: cell-based
# Conditions: running text
# Method: These values were obtained by either the lysis assay normally used for melittin or by an adaptation of the antibacterial inhibition zone assay of the above-cited Hultmark et al articles to plates with sheep red cells (SRC). With respect to the latter, sterile agarose plates contained 6 ml of medium With 1% agarose, 0.9% NaCl and 10% SRC suspended in Alsevers solution. A dilution series of peptide was applied in 3 mm wells each loaded with 3 μl of the respective samples. The plates were incubated at 30° C. for 24 h, the zones were recorded and LC values calculated as described in the Hultmark et al articles. Clear zones were recorded after a few hours of incubation and the use of such data gave an LC value of the same order as readings after 24 h. This plate assay is faster and more convenient than the lysis assay normally used for melittin.
smiles,measurement,value
"CC[C@H](C)[C@H](NC(=O)CN)C(=O)NCC(=O)N[C@@H](C)C(=O)N[C@H](C(=O)N[C@@H](CC(C)C)C(=O)N[C@@H](CCCCN)C(=O)N[C@H](C(=O)N[C@@H](CC(C)C)C(=O)N[C@H](C(=O)N[C@H](C(=O)NCC(=O)N[C@@H](CC(C)C)C(=O)N1CCC[C@H]1C(=O)N[C@@H](C)C(=O)N[C@@H](CC(C)C)C(=O)N[C@H](C(=O)N[C@@H](CO)C(=O)N[C@@H](Cc1c[nH]c2ccccc12)C(=O)N[C@H](C(=O)N[C@@H](CCCCN)C(=O)N[C@@H](CCCNC(=N)N)C(=O)N[C@@H](CCCCN)C(=O)N[C@@H](CCCNC(=N)N)C(=O)N[C@@H](CCC(N)=O)C(=O)N[C@@H](CCC(N)=O)C(N)=O)[C@@H](C)CC)[C@@H](C)CC)[C@@H](C)O)[C@@H](C)O)C(C)C)C(C)C [M(1-26), Melittin]",concentration lytic to sheep red blood cells,4 to 6 µM
